These results are taken from patent US9409892B2, “4-hydroxy-isoquinoline compounds as HIF hydroxylase inhibitors” (FIBROGEN, INC., priority 2012, dated 2016).

Protein sequences, listed by entry. Tags and fused reporters are not part of them. Lines headed by an entry give the natural chain unless they say otherwise; changes in a name come on top.
UniProt Q96KS0, whole entry: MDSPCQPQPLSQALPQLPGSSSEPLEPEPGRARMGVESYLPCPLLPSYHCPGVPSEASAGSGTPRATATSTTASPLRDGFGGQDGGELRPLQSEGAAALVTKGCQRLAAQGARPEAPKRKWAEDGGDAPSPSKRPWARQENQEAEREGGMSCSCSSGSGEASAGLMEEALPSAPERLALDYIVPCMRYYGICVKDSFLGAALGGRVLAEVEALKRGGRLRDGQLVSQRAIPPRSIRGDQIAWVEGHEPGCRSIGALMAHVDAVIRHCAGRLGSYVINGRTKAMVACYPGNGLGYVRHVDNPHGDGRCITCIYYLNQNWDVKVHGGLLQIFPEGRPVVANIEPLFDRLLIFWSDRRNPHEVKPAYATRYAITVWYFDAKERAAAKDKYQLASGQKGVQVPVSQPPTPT
UniProt Q9GZT9: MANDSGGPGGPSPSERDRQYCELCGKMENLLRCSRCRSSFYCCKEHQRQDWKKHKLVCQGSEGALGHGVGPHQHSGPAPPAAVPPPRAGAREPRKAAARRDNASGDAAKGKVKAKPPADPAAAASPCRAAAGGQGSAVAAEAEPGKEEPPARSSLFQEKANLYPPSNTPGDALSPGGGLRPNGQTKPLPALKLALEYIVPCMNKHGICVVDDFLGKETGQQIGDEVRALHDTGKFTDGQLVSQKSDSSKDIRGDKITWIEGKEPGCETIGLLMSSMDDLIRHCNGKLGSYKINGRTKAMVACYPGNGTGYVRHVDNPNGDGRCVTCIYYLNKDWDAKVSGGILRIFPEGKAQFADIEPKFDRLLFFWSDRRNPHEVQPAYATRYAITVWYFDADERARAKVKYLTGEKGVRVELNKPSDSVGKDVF

Where two headings read alike, the source gives them in different places.

One assay concerns the target PHD1 (EGLN2) (Homo sapiens (Human), UniProt Q96KS0). The assay is described as follows: HIF-PH assay (14CO2 capture), PHD1 enzyme inhibition. It is filed as biochemical. From the text:
(§1) Ketoglutaric acid α-[1-^14C]-sodium salt, alpha-ketoglutaric acid sodium salt, and HPLC purified peptide may be obtained from commercial sources, e.g., Perkin-Elmer (Wellesley Mass.), Sigma-Aldrich, and SynPep Corp. (Dublin Calif.), respectively. Peptides for use in the assay may be fragments of HIFα as described above or as disclosed in International Publication WO 2005/118836, incorporated by reference herein. HIF-pH, e.g., PHD1 (EGLN2) or PHD2 (EGLN1), can be expressed in, e.g., insect Hi5 cells, and partially purified, e.g., through a SP ion exchange chromatography column. Enzyme activity is determined by capturing ^14CO2 using an assay described by Kivirikko and Myllyla (1982, Methods Enzymol. 82:245-304). Assay reactions contain 50 mM HEPES (pH 7.4), 100 μM α-ketoglutaric acid sodium salt, 0.30 mCi/mL ketoglutaric acid α-[1-^14C]-sodium salt, 40 μM FeSO4, 1 mM ascorbate, 1541.8 units/mL Catalase, with or without 50 μM peptide substrate and various concentrations of compound of the invention. Reactions are initiated by addition of HIF-PH enzyme.
(§2) The peptide-dependent percent turnover is calculated by subtracting percent turnover in the absence of peptide from percent turnover in the presence of substrate peptide. Percent inhibition and IC50 are calculated using peptide-dependent percent turnover at given inhibitor concentrations. […]

The next assay deals with PHD2 (EGLN1) (Homo sapiens (Human), UniProt Q9GZT9). The assay is described as follows: HIF-PH assay (14CO2 capture), PHD2 enzyme inhibition. It is filed as biochemical.
Excerpt: as §1, §2

On PHD1 (EGLN2), `N#Cc1nc(C(=O)NCC(C(=O)O)c2ccccc2)c(O)c2ccc(Oc3ccccc3)cc12` (stereo not shown) [Compound 168, 3-[(1-Cyano-4-hydroxy-7-phenoxy-isoquinoline-3-carbonyl)-amino]-2-phenyl-propionic acid] displayed an IC50 of 1.79 µM and a PHD2/PHD1 of 15. Also, at PHD2 (EGLN1), 26.6 µM corresponded to half-maximal inhibition (IC50).
On PHD2 (EGLN1) (Table 1, individual measurement), `N#Cc1nc(C(=O)N[C@@H](CC(=O)O)Cc2ccccc2)c(O)c2ccc(Oc3ccccc3)cc12` [Compound 68, (R)-3-[(1-Cyano-4-hydroxy-7-phenoxy-isoquinoline-3-carbonyl)-amino]-4-phenyl-butyric acid] displayed a concentration for half-maximal inhibition (IC50) of 48.1 µM.
